Experimental data published in article PMC10643130, “Molecular basis for selective uptake and elimination of organic anions in the kidney by OAT1” (Nature Structural & Molecular Biology, 2023).
Changes are numbered by the printed parent chain. Where “and” joins values, the source holds several entries; their conditions need not be identical. Identical values can stand only once.

Tests used:
[1] = biological target: T1, OAT1 Gly227Ala (G227A) mutant, human (Homo sapiens, UniProt Q4U2R8, G227A); assay: in vitro; settings: pH 7.2
T1 sequence (Q4U2R8 1-563 G227A): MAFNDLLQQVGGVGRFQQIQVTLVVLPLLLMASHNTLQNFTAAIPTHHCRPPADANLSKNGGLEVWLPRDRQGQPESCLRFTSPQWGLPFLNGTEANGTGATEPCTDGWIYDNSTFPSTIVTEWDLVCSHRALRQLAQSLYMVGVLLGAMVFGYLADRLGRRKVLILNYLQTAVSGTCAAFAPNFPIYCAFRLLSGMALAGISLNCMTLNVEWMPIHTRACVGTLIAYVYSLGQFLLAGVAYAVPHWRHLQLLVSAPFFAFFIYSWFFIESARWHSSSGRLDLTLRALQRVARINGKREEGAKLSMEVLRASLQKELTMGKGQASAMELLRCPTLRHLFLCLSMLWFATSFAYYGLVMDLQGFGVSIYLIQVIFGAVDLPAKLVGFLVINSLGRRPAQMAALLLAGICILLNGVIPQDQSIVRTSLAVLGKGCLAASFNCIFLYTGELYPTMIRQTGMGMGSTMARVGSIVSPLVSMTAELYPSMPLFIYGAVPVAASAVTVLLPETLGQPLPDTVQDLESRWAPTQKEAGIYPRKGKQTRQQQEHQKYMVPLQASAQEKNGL

[2] = biological target: T2, OAT1 (wild-type human, HsOAT1) (Homo sapiens, UniProt Q4U2R8); assay: in vitro; settings: pH 7.2
T2 sequence (Q4U2R8 1-563): T1 sequence (Q4U2R8 1-563 G227A) with A227G

[3] = biological target: T3, human OAT1 Gly227Ala (G227A) (Homo sapiens, UniProt Q4U2R8, G227A); assay: cell-based; settings: 8 min, read-out: 6-CF uptake, Mean
T3 sequence (Q4U2R8 1-563 G227A): T1 sequence (Q4U2R8 1-563 G227A)

[4] = biological target: T4, human OAT1 Ser350Ala (S350A) (Homo sapiens, UniProt Q4U2R8, S350A); assay: Cell-based 6-CF transport assay, HsOAT1 Ser350Ala mutant; settings: 8 min, read-out: 6-CF uptake, Mean
T4 sequence (Q4U2R8 1-563 S350A): T1 sequence (Q4U2R8 1-563 G227A) with A227G, S350A

[5] = biological target: T5, OAT1 Ser350Ala (S350A) mutant, human (Homo sapiens, UniProt Q4U2R8, S350A); assay: as above; settings: human, pH 7.2
T5 sequence (Q4U2R8 1-563 S350A): T1 sequence (Q4U2R8 1-563 G227A) with A227G, S350A

[6] = biological target: T6, wild-type human OAT1 (HsOAT1) (Homo sapiens, UniProt Q4U2R8); assay: Cell-based 6-CF transport assay, wild-type HsOAT1 in HeLa cells
T6 sequence (Q4U2R8 1-563): T1 sequence (Q4U2R8 1-563 G227A) with A227G

[7] = biological target: T7, human OAT1 Tyr230Phe (Y230F) (Homo sapiens, UniProt Q4U2R8, Y230F); assay: Cell-based 6-CF transport assay, HsOAT1 Tyr230Phe mutant; settings: 8 min, read-out: 6-CF uptake, Mean
T7 sequence (Q4U2R8 1-563 Y230F): T1 sequence (Q4U2R8 1-563 G227A) with A227G, Y230F

Compound: O=C(O)CCC(=O)C(=O)O [α-KG, α-ketoglutarate]
- IC50 at 8 min [1]: 209 ± 23 µM
- IC50 at 8 min [2]: 70 ± 3.8 µM
- remaining activity at 0.69897 µM [3]: 99.8%
- remaining activity at 1.69897 µM [3]: 89.5%
- remaining activity at 2 µM [3]: 75.2%
- remaining activity at 2.30103 µM [3]: 54.5%
- remaining activity at 2.69897 µM [3]: 48.6%
- remaining activity at 3 µM [3]: 35.2%
- remaining activity at 3.30103 µM [3]: 15.2%
- remaining activity at 1 µM [4]: 75%
- remaining activity at 1.69897 µM [4]: 55.4%
- remaining activity at 2 µM [4]: 38.2%
- remaining activity at 2.30103 µM [4]: 19.4%
- remaining activity at 2.60206 µM [4]: 8.3%
- remaining activity at 2.69897 µM [4]: 6.5%
- IC50 at 8 min [5]: 90 ± 4 µM
- substrate quality in 6-CF assay ([6]; 0.5 mM, uptake after 8 minutes, similar to literature ref 20): good substrate
- 6-CF uptake, Mean ([6]; ED Fig 4g WT aKG, uM column 1): 73.9973%
- 6-CF uptake, Mean ([6]; ED Fig 4g WT aKG, uM column 1.30103): 61.6%
- 6-CF uptake, Mean ([6]; ED Fig 4g WT aKG, uM column 1.69897): 56.1833%
- 6-CF uptake, Mean ([6]; ED Fig 4g WT aKG, uM column 2): 31.1737%
- 6-CF uptake, Mean ([6]; ED Fig 4g WT aKG, uM column 2.30103): 20.4275%
- 6-CF uptake, Mean ([6]; ED Fig 4g WT aKG, uM column 2.69897): 10.7041%
- 6-CF uptake, Mean ([6]; ED Fig 4g WT aKG, uM column 3): 6.448%
- 6-CF uptake, Mean ([6]; ED Fig 4d WT, compound at 0.5 uM): 89.2%
- 6-CF uptake, Mean ([6]; ED Fig 4d WT, compound at 1 uM): 83.5%
- 6-CF uptake, Mean ([6]; ED Fig 4d WT, compound at 10 uM): 72.1005%
- 6-CF uptake, Mean ([6]; ED Fig 4d WT, compound at 20 uM): 61.9754%
- 6-CF uptake, Mean ([6]; ED Fig 4d WT, compound at 50 uM): 53.2%
- 6-CF uptake, Mean ([6]; ED Fig 4d WT, compound at 100 uM): 31.9795%
- 6-CF uptake, Mean ([6]; ED Fig 4d WT, compound at 200 uM): 21.35%
- 6-CF uptake, Mean ([6]; ED Fig 4d WT, compound at 500 uM): 11.2%
- 6-CF uptake, Mean ([6]; ED Fig 4d WT, compound at 1000 uM): 5.62%
- 6-CF uptake, Mean ([6]; Fig 1f WT, α-KG, uM column 0.69897): 82%
- 6-CF uptake, Mean ([6]; Fig 1f WT, α-KG, uM column 1.30103): 73.9973%
- 6-CF uptake, Mean ([6]; Fig 1f WT, α-KG, uM column 1.69897): 61.6%
- 6-CF uptake, Mean ([6]; Fig 1f WT, α-KG, uM column 2): 56.1833%
- 6-CF uptake, Mean ([6]; Fig 1f WT, α-KG, uM column 2.30103): 31.1737%
- 6-CF uptake, Mean ([6]; Fig 1f WT, α-KG, uM column 2.69897): 20.4275%
- 6-CF uptake, Mean ([6]; Fig 1f WT, α-KG, uM column 3): 10.7041%
- 6-CF uptake, Mean ([6]; Fig 1f WT, α-KG, uM column 3.30103): 6.448%
- remaining activity at 1 µM [7]: 80.6%
- remaining activity at 1.69897 µM [7]: 65.5%
- remaining activity at 2 µM [7]: 46.5%
- remaining activity at 2.30103 µM [7]: 29.5%
- remaining activity at 2.69897 µM [7]: 12.7%
- remaining activity at 3 µM [7]: 8.5%

Compound: malonate
- 6-CF transport in presence of dicarboxylate, single experiments ([6]; dicarboxylate 0.5 mM, 8 minutes, n = 8): 84.3122% and 81.221% and 78.2045% and 76.7397% and 81.6542% and 89.6452% and 76.3215% and 79.7447%
